This note sets out measurements from patent US11881286B2, “CD8+ t cell based immunosuppressive tumor microenvironment detection method” (GENENTECH, INC., priority 2019, dated 2024).

Test [1] has as its system COV434. The test can be described thus: HLA-A expression (RPKM) after EZH2 inhibitor, COV434. It is filed as cell-based, human. The following applies: COV434 (SMARCA4 mutation); 5 μM EZH2 inhibitor relative to control DMSO.
Test [2] concerns TOV112D. The test can be described thus: HLA-A expression (RPKM) after EZH2 inhibitor, TOV112D. It is filed as cell-based, human. The following applies: TOV112D (SMARCA4 mutation); 5 μM EZH2 inhibitor relative to control DMSO.

`CCN(c1cc(-c2ccc(CN3CCOCC3)cc2)cc(C(=O)NCc2c(C)cc(C)[nH]c2=O)c1C)C1CCOCC1` [EZH-6438]: the HLA-A expression entry in test [1] and in test [2] was “increased” each time.
